According to ChEMBL document CHEMBL1124221:
“And” between values parts separate entries of the source, which are not always exact repeats. Equal values may be shown once.

Amino acid sequences for entries named in this document (tags omitted). A change or cut given only in a name is not applied to a line headed by its entry.
UniProt P41144: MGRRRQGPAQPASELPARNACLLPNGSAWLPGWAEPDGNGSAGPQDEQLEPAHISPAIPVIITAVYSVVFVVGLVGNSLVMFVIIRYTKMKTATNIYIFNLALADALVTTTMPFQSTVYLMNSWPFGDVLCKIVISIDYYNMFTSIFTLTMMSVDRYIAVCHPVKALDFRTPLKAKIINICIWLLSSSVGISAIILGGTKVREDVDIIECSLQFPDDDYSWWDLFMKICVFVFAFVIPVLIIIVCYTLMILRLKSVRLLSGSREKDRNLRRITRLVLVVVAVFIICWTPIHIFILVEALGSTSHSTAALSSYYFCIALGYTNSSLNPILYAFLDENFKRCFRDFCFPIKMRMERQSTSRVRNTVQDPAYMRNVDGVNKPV
UniProt P97266, whole entry, looked up: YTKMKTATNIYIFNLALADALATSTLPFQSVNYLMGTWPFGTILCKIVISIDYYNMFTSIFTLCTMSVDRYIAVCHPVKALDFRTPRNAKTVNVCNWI

What was measured:
[1] = target: Kappa-type opioid receptor (Cavia porcellus, UniProt P41144); experiment: Binding affinity for the Opioid receptor kappa 1
Mu-type opioid receptor = Mu-type opioid receptor (Cavia porcellus, UniProt P97266); experiment: Binding affinity for the Opioid receptor mu 1

Row | SMILES | Ki [1] | Ki (Mu-type opioid receptor)
1 | CN(CCc1cccs1)[C@@H]1CCCC[C@H]1N(C)C(=O)Cc1cccc2sccc12 | 82 nM | 81 nM
2 | C=CCN(C)[C@@H]1CCCC[C@H]1N(C)C(=O)Cc1cccc2sccc12 | 52 nM | 210 nM
3 | CN(C(=O)Cc1cccc2occc12)[C@@H]1CCCC[C@H]1N1CCCC1 |  | 3300 nM and 1600 nM and 1400 nM
4 | CN(C(=O)Cc1cccc2occc12)[C@@H]1CCCC[C@H]1N1CCCCCC1 | 29 nM | 3500 nM
5 | CN(CCc1ccccc1)[C@@H]1CCCC[C@H]1N(C)C(=O)Cc1cccc2sccc12 | 30 nM | 26 nM
6 | CN(C(=O)Cc1ccc(Cl)c(Cl)c1)C1CCCCC1N1CCCC1 (stereo not drawn) | 10 nM | 880 nM
7 | CN(CC1CC1)[C@@H]1CCCC[C@H]1N(C)C(=O)Cc1cccc2sccc12 | 200 nM | 190 nM
8 | CN(C(=O)Cc1ccccc1)[C@H]1CC[C@@]2(CCCO2)C[C@@H]1N1CCCC1 | 7.3 nM | 52 nM
9 | CN(C(=O)Cc1c[nH]c2ccccc12)[C@@H]1CCCC[C@H]1N1CCCC1 | 74 nM | 2900 nM
10 | CN(C(=O)Cc1ccc(Cl)c(Cl)c1)C1CCC2(CCCO2)CC1N1CCCC1 (stereo not drawn) | 17 nM | 6400 nM
11 | CN(C(=O)Cc1cccc2sccc12)[C@@H]1CCCC[C@H]1N1CCCCC1 | 250 nM | 2400 nM
12 | CN(C(=O)Cc1cccs1)[C@@H]1CCCC[C@H]1N1CCCC1 | 720 nM | 18000 nM
13 | CCN(CC)[C@@H]1CCCC[C@H]1N(C)C(=O)Cc1cccc2sccc12 | 1800 nM | 350 nM
14 | CC[C@@]12CCN(CC3CC3)C(C(=O)c3ccc(O)cc31)[C@@H]2C |  | 1.7 nM
15 | CN(C(=O)Cc1cccc2sccc12)[C@@H]1CCCC[C@H]1N1CCCCCC1 | 40 nM | 810 nM
